Patent US20090099157A1, “TETRAHYDRO-PYRAZOLO-PYRIDINE THIOETHER MODULATORS OF CATHEPSIN S” (priority 2007, published 2009)

Amino acid sequences for entries named in this document (tags omitted). Residues count along the entry.
UniProt P25774, 115-331: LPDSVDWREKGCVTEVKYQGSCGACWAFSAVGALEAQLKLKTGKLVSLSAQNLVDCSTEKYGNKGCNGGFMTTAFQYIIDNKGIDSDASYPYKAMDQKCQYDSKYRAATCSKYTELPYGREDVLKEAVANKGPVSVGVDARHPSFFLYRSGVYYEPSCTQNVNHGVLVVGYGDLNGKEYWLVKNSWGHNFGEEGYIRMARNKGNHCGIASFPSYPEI

Target: Recombinant human cathepsin S (CatS) (Homo sapiens, UniProt P25774)
Assay: biochemical

SMILES	IC50
NC(=O)C1CCN(C[C@H](O)Cn2nc(-c3ccc(C(F)(F)F)c(SCCN4CCC(F)CC4)c3)c3c2CCNC3)CC1 [Example 323, 1-[(2S)-3-{3-[3-{[2-(4-Fluoropiperidin-1-yl)ethyl]sulfanyl}-4-(trifluoromethyl)phenyl]-4,5,6,7-tetrahydro-1H-pyrazolo[4,3-c]pyridin-1-yl}-2-hydroxypropyl]piperidine-4-carboxamide]	3180 nM
CN(C)c1ccc2c(n1)n(C1CCN(CC(O)Cn3nc(-c4ccc(C(F)(F)F)c(SCCN5CCCCC5)c4)c4c3CCN(S(C)(=O)=O)C4)CC1)c(=O)n2C (stereo not drawn) [Example 154, 5-(Dimethylamino)-3-(1-{2-hydroxy-3-[5-(methylsulfonyl)-3-{3-[(2-piperidin-1-ylethyl)sulfanyl]-4-(trifluoromethyl)phenyl}-4,5,6,7-tetrahydro-1H-pyrazolo[4,3-c]pyridin-1-yl]propyl}piperidin-4-yl)-1-methyl-1,3-dihydro-2H-imidazo[4,5-b]pyridin-2-one]	10 nM
CC(=O)N1CCc2c(c(-c3ccc(C(F)(F)F)c(SCCN4CCC(F)CC4)c3)nn2C[C@@H](O)CN2CCCCC2)C1 [Example 321, (2S)-1-{5-Acetyl-3-[3-{[2-(4-fluoropiperidin-1-yl)ethyl]sulfanyl}-4-(trifluoromethyl)phenyl]-4,5,6,7-tetrahydro-1H-pyrazolo[4,3-c]pyridin-1-yl}-3-piperidin-1-ylpropan-2-ol]	390 nM
O=C(CO)N1CCc2c(c(-c3ccc(C(F)(F)F)c(SCCN4CCC(F)(F)C4)c3)nn2CC(O)CN2CCC(N3CCCC3=O)CC2)C1 (stereo not drawn) [Example 241, 1-[1-(3-{3-[3-{[2-(3,3-Difluoropyrrolidin-1-yl)ethyl]sulfanyl}-4-(trifluoromethyl)phenyl]-5-(hydroxyacetyl)-4,5,6,7-tetrahydro-1H-pyrazolo[4,3-c]pyridin-1-yl}-2-hydroxypropyl)piperidin-4-yl]pyrrolidin-2-one]	30 nM
CC(=O)N1CCc2c(c(-c3ccc(C(F)(F)F)c(SCC(=O)N4CCCC4)c3)nn2CC(O)CN2CCCCC2)C1 (stereo not drawn) [Example 279, 1-(5-Acetyl-3-{3-[(2-oxo-2-pyrrolidin-1-ylethyl)sulfanyl]-4-(trifluoromethyl)phenyl}-4,5,6,7-tetrahydro-1H-pyrazolo[4,3-c]pyridin-1-yl)-3-piperidin-1-ylpropan-2-ol]	390 nM

The next lines start with the values.

IC50	SMILES
530 nM	CS(=O)(=O)N1CCc2c(c(-c3ccc(C(F)(F)F)c(SCCN4CCCC4)c3)nn2CC(O)CN2CCC3(CC2)OCCCO3)C1 (stereo not drawn) [Example 601, 1-(1,5-Dioxa-9-azaspiro[5.5]undec-9-yl)-3-[5-(methylsulfonyl)-3-{3-[(2-pyrrolidin-1-ylethyl)sulfanyl]-4-(trifluoromethyl)phenyl}-4,5,6,7-tetrahydro-1H-pyrazolo[4,3-c]pyridin-1-yl]propan-2-ol]
120 nM	CS(=O)(=O)N1CCc2c(c(-c3ccc(C(F)(F)F)c(SCCN4CCCC4)c3)nn2CC(O)CN2CCC(O)(c3ccccn3)CC2)C1 (stereo not drawn) [Example 670, 1-{2-Hydroxy-3-[5-(methylsulfonyl)-3-{3-[(2-pyrrolidin-1-ylethyl)sulfanyl]-4-(trifluoromethyl)phenyl}-4,5,6,7-tetrahydro-1H-pyrazolo[4,3-c]pyridin-1-yl]propyl}-4-pyridin-2-ylpiperidin-4-ol]
400 nM	O[C@@H](CN1CCN(c2ccccc2F)CC1)Cn1nc(-c2ccc(C(F)(F)F)c(SCCN3CCC(F)CC3)c2)c2c1CCNC2 [Example 498, (2S)-1-[4-(2-Fluorophenyl)piperazin-1-yl]-3-{3-[3-{[2-(4-fluoropiperidin-1-yl)ethyl]sulfanyl}-4-(trifluoromethyl)phenyl]-4,5,6,7-tetrahydro-1H-pyrazolo[4,3-c]pyridin-1-yl}propan-2-ol]
500 nM	OC(CN1CCN(c2ccccc2F)CC1)Cn1nc(-c2ccc(C(F)(F)F)c(SCCN3CCCCC3)c2)c2c1CCNC2 (stereo not drawn) [Example 401, 1-[4-(2-Fluorophenyl)piperazin-1-yl]-3-(3-{3-[(2-piperidin-1-ylethyl)sulfanyl]-4-(trifluoromethyl)phenyl}-4,5,6,7-tetrahydro-1H-pyrazolo[4,3-c]pyridin-1-yl)propan-2-ol]
